For test [1], the target named is FAAH (Rattus norvegicus, UniProt P97612). Briefly: Assay Method 1A: FAAH enzyme assay, 14C-oleamide hydrolysis, solubilized liver plasma membrane extract.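 Also: ki obtained by Dixon analysis, taking the x-intercept of inhibitor concentration versus reciprocal rate plots at fixed substrate level and correcting for substrate concentration relative to Km.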 Conditions: read-out: Assay 1A Ki, liver plasma membrane extract containing FAAH, pH 9.0, 20-23 °C, Dixon method.
Test [2] addresses T1, Rat FAAH (Rattus norvegicus, UniProt P97612).
T1 construct: expressed in transfected cells
The test can be described thus: Assay Method 2: FAAH assay, 3H-anandamide hydrolysis in cell homogenate (SK-N-MC cells transfected with rat FAAH). The test is classed as biochemical. To be noted: 3H-AEA 80 nM, rt 1 h, pH 9. As for the experimental part: A. Transfection of Cells with Rat FAAH
(§1) A 10-cm tissue culture dish with a confluent monolayer of SK—N-MC cells was split 2 days (d) prior to transfection. Using sterile technique, the media was removed and the cells were detached from the dish by the addition of trypsin. One fifth of the cells were then placed onto a new 10-cm dish. Cells were grown in a 37° C. incubator with 5% CO2 in Minimal Essential Media Eagle with 10% Fetal Bovine Serum. After 2 d, cells were approximately 80% confluent. These cells were removed from the dish with trypsin and pelleted in a clinical centrifuge. The pellet was re-suspended in 400 μL complete media and transferred to an electroporation cuvette with a 0.4 cm gap between the electrodes. Supercoiled rat FAAH cDNA (1 μg) was added to the cells and mixed. The voltage for the electroporation was set at 0.25 kV, and the capacitance was set at 960 μF. After electroporation, the cells were diluted into complete media (10 mL) and plated onto four 10-cm dishes. Because of the variability in the efficiency of electroporation, four different concentrations of cells were plated. The ratios used were 1:20, 1:10, and 1:5, with the remainder of the cells being added to the fourth dish. The cells were allowed to recover for 24 h before adding the selection media (complete media with 600 μg/mL G418). After 10 d, dishes were analyzed for surviving colonies of cells. […]

Protein sequences, listed by entry. Tags and fused reporters are not part of them.
UniProt P97612, whole entry: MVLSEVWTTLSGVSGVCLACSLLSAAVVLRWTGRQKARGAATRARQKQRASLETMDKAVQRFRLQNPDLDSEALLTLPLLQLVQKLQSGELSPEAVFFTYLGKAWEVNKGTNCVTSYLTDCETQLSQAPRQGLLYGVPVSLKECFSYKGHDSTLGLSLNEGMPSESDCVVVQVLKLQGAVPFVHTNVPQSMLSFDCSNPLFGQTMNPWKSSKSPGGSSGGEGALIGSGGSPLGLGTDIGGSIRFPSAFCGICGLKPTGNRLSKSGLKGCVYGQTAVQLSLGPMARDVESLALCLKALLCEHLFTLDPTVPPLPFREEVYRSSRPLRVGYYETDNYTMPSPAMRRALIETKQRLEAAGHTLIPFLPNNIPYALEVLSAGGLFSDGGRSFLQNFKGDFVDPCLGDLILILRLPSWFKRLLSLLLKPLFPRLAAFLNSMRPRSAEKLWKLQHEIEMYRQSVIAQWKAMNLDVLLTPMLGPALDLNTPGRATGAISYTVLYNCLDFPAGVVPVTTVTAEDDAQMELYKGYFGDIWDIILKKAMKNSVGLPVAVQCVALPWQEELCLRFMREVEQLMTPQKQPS
UniProt O00519, whole entry: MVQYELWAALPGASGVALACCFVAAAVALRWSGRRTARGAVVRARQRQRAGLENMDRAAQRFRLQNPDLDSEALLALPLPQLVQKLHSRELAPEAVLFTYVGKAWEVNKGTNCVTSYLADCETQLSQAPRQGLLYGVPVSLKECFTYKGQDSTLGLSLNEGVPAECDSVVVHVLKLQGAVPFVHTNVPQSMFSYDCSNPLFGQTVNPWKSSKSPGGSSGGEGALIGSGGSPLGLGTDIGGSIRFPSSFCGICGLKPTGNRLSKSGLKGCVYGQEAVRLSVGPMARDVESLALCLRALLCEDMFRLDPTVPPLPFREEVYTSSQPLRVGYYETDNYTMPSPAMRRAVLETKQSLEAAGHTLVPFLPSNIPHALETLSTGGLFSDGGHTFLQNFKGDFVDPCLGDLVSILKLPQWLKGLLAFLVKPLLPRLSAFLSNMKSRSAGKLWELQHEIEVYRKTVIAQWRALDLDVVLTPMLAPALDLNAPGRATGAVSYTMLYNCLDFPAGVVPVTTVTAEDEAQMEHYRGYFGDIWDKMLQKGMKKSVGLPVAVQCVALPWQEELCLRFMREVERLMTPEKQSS

For test [3], the target named is FAAH (Homo sapiens, UniProt O00519). The test can be described thus: Assay Method 1B: FAAH assay, 3H-anandamide hydrolysis in cell homogenate (T84 or SK-N-MC cells transfected with human FAAH). The test is classed as biochemical. On the set-up: expressed in transfected cells. Conditions: 3H-AEA 80 nM, rt 1 h, pH 9. As for the experimental part:
as §1, with “Transfection of Cells with Human FAAH A 10-cm” for “A 10-cm”, “electrodes. Supercoiled human FAAH cDNA” for “electrodes. Supercoiled rat FAAH cDNA”

Turning to `COC(=O)c1cccc(-c2cnc(C(=O)CCCCCCc3ccccc3)o2)n1` [Example 33, Methyl 6-(2-(7-phenylheptanoyl)oxazol-5-yl)picolinate], the inhibition constant Ki – broadly, the dissociation constant of the complex between target and ligand, obtained from inhibition or displacement – in test [1] was 8 nM. Besides, the IC50 (usually the concentration that inhibits the measured activity by half) in test [2] came out at 70 nM; in test [3], 6 nM.

Values taken from patent US7915270B2, “Oxazole ketones as modulators of fatty acid amide hydrolase” (The Scripps Research Institute, priority 2006, dated 2011).
